Test results published in patent US20210292586A1, “AQUEOUS INK FOR INKJET RECORDING” (KAO CORPORATION, priority 2018, published 2021).

Conditions: 10 parts in 90 parts of water at room temperature (25° C.)

## polypropylene glycol diglycidyl ether
  water solubility rate: 31 % by mass
